Each structure is given as a SMILES string.

By UniProt entry, the sequences of proteins in these tests, tags left out.
UniProt P21917, whole entry: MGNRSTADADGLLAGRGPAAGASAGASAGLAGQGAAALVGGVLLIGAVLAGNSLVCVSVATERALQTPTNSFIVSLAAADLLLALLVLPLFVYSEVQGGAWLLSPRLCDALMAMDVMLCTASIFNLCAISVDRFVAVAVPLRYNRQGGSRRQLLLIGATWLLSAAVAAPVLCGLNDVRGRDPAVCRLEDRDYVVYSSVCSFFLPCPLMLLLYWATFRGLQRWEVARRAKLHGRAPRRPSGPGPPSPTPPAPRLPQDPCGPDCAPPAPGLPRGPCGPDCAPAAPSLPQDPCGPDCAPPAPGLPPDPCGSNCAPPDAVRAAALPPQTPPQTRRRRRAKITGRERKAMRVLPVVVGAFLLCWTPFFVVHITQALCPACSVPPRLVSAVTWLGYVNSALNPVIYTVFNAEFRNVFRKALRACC

This experiment concerns the target D(4) dopamine receptor (Homo sapiens, UniProt P21917). Put plainly: biochemical.
On to `COc1ccc(C2CCN(Cc3ccc4c(c3)NC(=O)CO4)CC2)cc1`, for which the inhibition constant (Ki) worked out at 3.8 nM.
To `Cc1ccc(N2CCN(Cc3ccc4c(c3)OCC(=O)N4)CC2)cc1` belongs 10.7 nM; to `Cc1ccc(N2CCN(Cc3ccc4c(c3)NC(=O)CO4)CC2)cc1C`, 5.1 nM; to `Cc1ccc(N2CCN(Cc3ccc4c(c3)OCC(=O)N4)CC2)cc1C`, 6.9 nM.
The molecule `COc1ccc(N2CCN(Cc3ccc4c(c3)NC(=O)CO4)CC2)cc1` returned a Ki of 12.3 nM.

By Ki is commonly meant the dissociation constant of the complex between target and ligand, obtained from inhibition or displacement. A higher Ki goes with a looser hold on the target.

The values are drawn from ChEMBL document CHEMBL1132537, “A series of 6- and 7-piperazinyl- and -piperidinylmethylbenzoxazinones with dopamine D4 antagonist activity: discovery of a potential atypical antipsychotic agent” (J Med Chem, 1999).
